From patent publication US20250163160A1 (Amgen, published 2025) come the findings set out here.

By UniProt entry, the sequences of proteins in these tests, tags left out. Chains listed by the source or under a name are the forms on record and can include a tag or linker. Residues count along the entry.
UniProt P11362, 22-822 limits assumed, form in doubt, chain 1 of 2: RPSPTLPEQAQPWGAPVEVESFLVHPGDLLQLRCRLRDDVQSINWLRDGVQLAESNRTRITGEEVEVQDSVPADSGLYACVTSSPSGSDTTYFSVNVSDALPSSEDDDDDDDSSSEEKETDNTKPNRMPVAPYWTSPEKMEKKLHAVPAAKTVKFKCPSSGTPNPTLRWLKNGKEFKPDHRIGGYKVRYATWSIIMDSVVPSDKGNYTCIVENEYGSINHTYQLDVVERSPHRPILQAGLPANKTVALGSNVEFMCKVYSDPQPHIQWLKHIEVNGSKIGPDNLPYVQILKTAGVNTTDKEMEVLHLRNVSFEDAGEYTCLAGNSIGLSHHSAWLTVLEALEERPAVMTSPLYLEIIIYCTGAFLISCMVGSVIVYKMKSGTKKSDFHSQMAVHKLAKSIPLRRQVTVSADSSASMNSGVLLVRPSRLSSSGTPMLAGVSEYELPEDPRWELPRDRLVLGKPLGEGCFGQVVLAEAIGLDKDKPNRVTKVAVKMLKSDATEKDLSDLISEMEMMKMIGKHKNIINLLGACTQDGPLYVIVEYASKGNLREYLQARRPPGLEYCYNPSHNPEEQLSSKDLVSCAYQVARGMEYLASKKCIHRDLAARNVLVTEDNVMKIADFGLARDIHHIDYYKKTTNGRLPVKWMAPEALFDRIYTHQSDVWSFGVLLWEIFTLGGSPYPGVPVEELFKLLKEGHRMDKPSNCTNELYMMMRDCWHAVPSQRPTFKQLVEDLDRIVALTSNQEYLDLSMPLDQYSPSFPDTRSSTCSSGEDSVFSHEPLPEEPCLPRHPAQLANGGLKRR

The target in test [1] is T1, human FGF21 receptor (FGF21R): full length human FGFR1c and full length human β-Klotho co-expressed on cells (human, UniProt P11362; Q86Z14). The test is described as follows: cell-based or functional assay.
Test [2] concerns the target T1, human FGF21 receptor (FGF21R): full …. The test is described as follows: cell-based or functional assay. This is another data set of the same source.

B1: 16H7 (antibody, human IgG2, lambda)
heavy: QVTLKESGPVLVKPTETLTLTCTVSGFSLNNARMGVSWIRQPPGKALEWLAHIFSNDEKSYSTSLKSRLTISKDTSKSQVVLIMTNMDPVDTATYYCARSVVTGGYYYDGMDVWGQGTTVTVSSASTKGPSVFPLAPCSRSTSESTAALGCLVKDYFPEPVTVSWNSGALTSGVHTFPAVLQSSGLYSLSSVVTVPSSNFGTQTYTCNVDHKPSNTKVDKTVERKCCVECPPCPAPPVAGPSVFLFPPKPKDTLMISRTPEVTCVVVDVSHEDPEVQFNWYVDGVEVHNAKTKPREEQFNSTFRVVSVLTVVHQDWLNGKEYKCKVSNKGLPAPIEKTISKTKGQPREPQVYTLPPSREEMTKNQVSLTCLVKGFYPSDIAVEWESNGQPENNYKTTPPMLDSDGSFFLYSKLTVDKSRWQQGNVFSCSVMHEALHNHYTQKSLSLSPGK
light: SYVLTQPPSVSVAPGQTARITCGGNNIGSESVHWYQQKPGQAPVLVVYDDSDRPSGIPERFSGSNSGNTATLTISRVEAGDEADYYCQVWDGNSDHVVFGGGTKLTVLGQPKANPTVTLFPPSSEELQANKATLVCLISDFYPGAVTVAWKADGSPVKAGVETTKPSKQSNNKYAASSYLSLTPEQWKSHRSYSCQVTHEGSTVEKTVAPTECS
As for B1, in test [1], the “EC50 (read off the curve); luciferase reporter (RLU) in AM-1/D FGFR1c+β-Klotho Luc cells, 16H7 alone (0 nM 39F11)” value is approximately 3 nM.

B2: 16H7 variant, heavy chain H3, light chain Q16K (antibody, human IgG2, lambda)
heavy: QVTLKESGPVLVKPTETLTLTCTVSGFSLNNARMGVSWIRQPPGKALEWLAHIFSNDEKSYSTSLKSRLTISKDTSKSQVVLIMTNMDPVDTATYYCARSVVTGGYYYDGMDVWGQGTTVTVSSASTKGPSVFPLAPCSRSTSESTAALGCLVKDYFPEPVTVSWNSGALTSGVHTFPAVLQSSGLYSLSSVVTVPSSNFGTQTYTCNVDHKPSNTKVDKTVERKCCVECPPCPAPPVAGPSVFLFPPKPKDTLMISRTPEVTCVVVDVSHEDPEVQFNWYVDGVEVHNAKTKPREEQFNSTFRVVSVLTVVHQDWLNGKEYKCKVSNKGLPAPIEKTISKTKGQPREPQVYTLPPSREEMTKNQVSLTCLVKGFYPSDIAVEWESNGQPENNYKTTPPMLDSDGSFFLYSKLTVDKSRWQQGNVFSCSVMHEALHNHYTQKSLSLSPGK
light: SYVLTQPPSVSVAPGKTARITCGGNNIGSESVHWYQQKPGQAPVLVVYDDSDRPSGIPERFSGSNSGNTATLTISRVEAGDEADYYCQVWDGNSDHVVFGGGTKLTVLGQPKANPTVTLFPPSSEELQANKATLVCLISDFYPGAVTVAWKADGSPVKAGVETTKPSKQSNNKYAASSYLSLTPEQWKSHRSYSCQVTHEGSTVEKTVAPTECS
As for B2, the “EC50 (nM), Erk-phosphorylation, human adipocyte assay” value in test [2] was 0.11 nM.
